Patent US20170071976A1, “PHARMACEUTICAL SOLUTION HAVING ANTI-TUMOR EFFECT-ENHANCING AND TOXICITY-REDUCING EFFECT, AND PHARMACEUTICAL COMPOSITION COMPRISING SAME” (priority 2014, published 2017)

Test system: xenograft tumors from human ovarian cancer SKOV3 cells
Test: SKOV3 xenograft in nude mice, intravenous deuterium oxide in combination with paclitaxel
Assay type: in vivo, BALB/c nude mice
Details: Paclitaxel 8 mg/kg × 11, tail vein
From the text: 3. […] 4. Statistics: the same as Example 21.

In the case of `CC(=O)O[C@H]1C(=O)[C@@]2(C)[C@H]([C@H](OC(=O)c3ccccc3)[C@]3(O)C[C@H](OC(=O)[C@H](O)[C@@H](NC(=O)c4ccccc4)c4ccccc4)C(C)=C1C3(C)C)[C@]1(OC(C)=O)CO[C@@H]1C[C@@H]2O` [Paclitaxel, paclitaxel], the “Body weight (g) Initial” value is reported as 20.1 g.
